One test addresses hSSTR2 (Homo sapiens (Human), UniProt P30874). Nature of the test: Intracellular calcium mobilization assay (FLIPR Calcium 4), hSSTR2.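 Note: agonist activity read as intracellular calcium rise in cells expressing human SSTR2, loaded with a calcium-sensitive dye for 60 min at 37 °C, measured by FLIPR.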 It is filed as cell-based. In general terms: A change in cytosolic calcium serves as a functional read-out for many receptors and channels.
The target in the next test is hDRD2 (Homo sapiens (Human), UniProt P14416). Format: cell-based. The note with it: read-out: hDRD2 EC50 (nM) ± SEM; calcium mobilization.

Protein sequences, listed by entry. Tags and fused reporters are not part of them. Lines headed by an entry give the natural chain unless they say otherwise; changes in a name come on top.
UniProt P30874: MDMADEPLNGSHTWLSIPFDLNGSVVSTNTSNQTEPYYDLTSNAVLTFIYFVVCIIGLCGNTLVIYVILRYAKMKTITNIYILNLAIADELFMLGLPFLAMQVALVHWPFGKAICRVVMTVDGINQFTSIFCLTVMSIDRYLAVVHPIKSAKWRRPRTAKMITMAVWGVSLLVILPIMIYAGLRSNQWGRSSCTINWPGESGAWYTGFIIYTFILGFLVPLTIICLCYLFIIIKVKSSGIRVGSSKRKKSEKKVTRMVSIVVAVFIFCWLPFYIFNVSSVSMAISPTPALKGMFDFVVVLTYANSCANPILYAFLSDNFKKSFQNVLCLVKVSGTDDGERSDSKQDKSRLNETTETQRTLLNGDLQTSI

One may read the EC50 as the concentration that produces a half-maximal response. As a reminder, the Emax is the maximal effect, on the per cent scale that the assay sets.

For the compound `C[C@@H](O)[C@@H]1NC(=O)[C@H](CCCCN)NC(=O)[C@@H](Cc2c[nH]c3ccccc23)NC(=O)[C@H](Cc2ccncc2)NC(=O)[C@H](Cc2ccccc2)NC(=O)[C@H](CCCNC(=N)N)NC(=O)[C@H](NC(=O)CSC[C@@H]2C[C@@H]3c4cccc5[nH]cc(c45)C[C@H]3N(C)C2)CCCCNC(=O)[C@H](Cc2ccccc2)NC1=O` [Compound 24, Dop1-cyclo(DLys-Arg-Phe-4Pal-DTrp-Lys-Thr-Phe)], the EC50 on hSSTR2 came to 0.0031 ± 0.0002 µM. The Emax on hSSTR2 (read-out: hSSTR2 % Emax ± SEM) is 91.7 ± 7.6%.

Consider “Dop1-cyclo(DLys-Arg-Phe-Phe-DTrp-Lys-Thr-Phe) [Compound 44]”, for which the EC50 at hDRD2 is 232 ± 33.1 nM.

For the origin of these results see patent US8952128B2, “Somatostatin-dopamine chimeric analogs” (priority 2012, dated 2015).
